Antibody variant affinities, Ab-14 light chain, assay B

Values reported by Li et al. 2023, doi:10.1038/s41467-023-39022-2 (FLAb copy).

Antigen: PDVDLGDISGINAS, a 14-residue peptide of the SARS-CoV-2 spike HR2 region.

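Phage display of a naive human antibody library on the peptide gave the parent. The variants were designed computationally from a first round of random CDR variants and then made and measured. Their group label is 14L_GP_Gibbs (GP: Gaussian process model; Gibbs: Gibbs sampling; a sequence that several methods proposed may carry one label only). The assay is AlphaSeq: two haploid yeast populations carry antibody and antigen on their surface. After mating in shaken culture at 30 °C for 16 h, diploids were selected and their barcode pairs sequenced. A regression on co-assayed BCL2-family reference pairs converts the normalised counts of each replicate to an apparent Kd. The assay was run in six technical replicates.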

Parent: Ab-14, a human scFv built as VH, a (GGGGS)3 linker, VL. Only the CDRs of the light chain vary.
VH: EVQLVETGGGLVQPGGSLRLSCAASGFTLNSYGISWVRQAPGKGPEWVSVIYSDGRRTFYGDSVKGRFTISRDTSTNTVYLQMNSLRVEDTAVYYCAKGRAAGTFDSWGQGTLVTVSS
VL: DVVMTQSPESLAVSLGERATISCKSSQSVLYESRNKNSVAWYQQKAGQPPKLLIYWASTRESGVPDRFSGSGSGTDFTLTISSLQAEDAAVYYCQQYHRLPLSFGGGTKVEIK

Variants are written as CDR1, CDR2 and CDR3 of the light chain (limits as in the source). Parent: KSSQSVLYESRNKNSVA, WASTRES, QQYHRLPLS.
Scale: log10 of Kd in nM, estimated from mating counts; low values are strong binders.
In the paper, a design with two or fewer of six values counts as a poor binder.

CDR-L1 | CDR-L2 | CDR-L3 | log10 Kd (nM) by replicate | empty controls
KVSQMQPYESRNKNNVA | NASTRMS | QQYHRLPLS | 0.01 -0.18 -0.27 -0.35 -0.12 0.00 | 6/18 (3.15)
KFSQSVLYESRNSNAVA | EASTRES | QDYHRLPLS | 0.25 0.44 0.16 0.37 0.11 0.20 | 1/18 (3.89)
KLSMSDLYEMRNKNSVA | EASTREV | QQYHRLPLS | 0.20 0.05 -0.03 0.01 -0.13 -0.03 | 0/18
KFEMLWDYEDRNLNSVA | NASTRES | QQYHRLPLS | 0.25 0.38 0.28 0.23 0.51 0.53 | 1/18 (2.21)
KVEPSVQGEQRNMNAVA | SASTREQ | QQYHRLPLS | 0.26 -0.06 0.19 -0.06 0.37 -0.04 | 2/18 (1.72)
KLSCSVDYWSRNTNSVA | GASTRES | QQYHRLPLS | 0.57 0.59 0.56 0.63 0.62 0.81 | 0/18
KMSMSWPYDSPNKNSVA | NASTRMQ | QQYHRLPLS | -0.02 -0.15 -0.24 -0.29 -0.18 -0.11 | 3/18 (3.56)
KYSQSDEYESRNFNSVA | NASTRSH | QQYHRLPLS | -0.01 0.08 0.00 -0.27 -0.08 0.04 | 0/18
KVEMSVPYEERNKNSVA | HASVRES | QQYHRLPLS | 0.25 -0.01 0.28 0.58 0.19 0.09 | 0/18
KIQQSVYYEDRNKNSVA | SASTRCS | QQYHRLPLS | -0.11 0.35 0.26 -0.08 0.24 -0.09 | 2/18 (3.13)
KVSQSMLGESRNFNSVA | EASTREN | QQYHRLPLS | 0.13 0.12 -0.02 -0.02 -0.01 0.22 | 1/18 (3.17)
KVSQQNLYEQRNANNVA | NASLRES | QQYHRLPLS | -0.05 -0.30 -0.23 -0.08 -0.01 -0.07 | 0/18
KLSQSDGYQARNKNSVA | HASQRED | QQYHRLPLS | -0.32 -0.27 -0.46 -0.70 -0.57 -0.44 | 3/18 (3.15)
LISQQELYEQRNKNSVA | DASQRLS | QQYHRLPLS | -0.04 -0.13 -0.14 -0.34 -0.31 -0.15 | 0/18
KSSPSQEYEDRNFNSVA | HASTREE | QQYHRLPLS | 0.34 0.12 0.33 0.08 0.39 0.08 | 1/18 (3.00)
KVSQGMWYESRNKNSVA | DASQRES | QQYHRLPLQ | -0.08 -0.11 -0.09 -0.32 -0.20 -0.20 | 2/18 (3.42)
KCQISVEQESRQKNSVA | NASKRES | QQYHRLPLS | 0.48 0.40 0.32 0.41 0.48 0.43 | 5/18 (3.04)
KVEQLHDYESRNKNAVA | NGSTRES | QQYHRLPLS | 0.30 0.29 0.02 0.27 0.18 0.52 | 3/18 (2.57)
KVSQSQLYEDGNSNSVA | NASVRES | QQYHRLPLS | 0.46 0.41 0.35 0.61 0.19 0.62 | 1/18 (2.12)
KISQSWLYEPRNSNSVA | NASTRQM | QQYHRLPLS | 0.56 0.31 0.26 0.34 0.36 0.27 | 1/18 (4.59)
GLSQSVEQLSRNKNSVA | NASQREV | QQYHRLPLS | 0.44 0.26 0.07 0.05 0.00 0.24 | 1/18 (3.98)
KLQQSQLYESRNQNSVA | QASQREV | QQYHRLPLS | -0.04 -0.32 -0.34 -0.37 -0.39 -0.50 | 2/18 (2.14)
KVSQQNLYESRMKNSVA | MASQREM | QQYHRLPLS | 0.75 0.85 0.41 1.07 0.97 0.89 | 1/18 (1.74)
KLEQSVQMESRWKNSVA | NASTRES | QQYHRLPLS | 0.46 0.40 0.27 0.61 0.53 0.62 | 0/18
KLSTSVLYEDRMCNAVA | AASTREE | QQYHRLPLS | 0.51 0.34 0.13 0.34 0.50 0.47 | 1/18 (3.48)
LLQQSELYESRNKNSVA | DASTRES | QAYHRLPLS | 0.49 0.39 0.23 0.03 0.39 0.51 | 2/18 (3.67)
KQSQAVLYEQRNKNNVA | EGSTRES | QQYHRLPLS | 0.13 0.20 0.11 0.22 0.31 0.51 | 0/18
KIDISELGESVNKNSVA | NASTRME | QQYHRLPLS | 0.31 0.23 0.23 0.24 0.51 0.58 | 2/18 (3.12)
AAQQSELYEDRNQNSVA | SASQRLS | QQYHRLPLS | 0.36 0.46 -0.11 0.23 0.22 0.34 | 0/18
KFQGSVMMGDRNKNSVA | WASTRLS | QQYHRLPLS | 0.85 0.69 0.60 1.39 1.20 1.14 | 0/18
KLQFGNLYESRNWNSVA | KASTRLQ | QQYHRLPLS | 1.19 1.02 1.72 0.61 0.92 1.11 | 1/18 (2.93)
KLSQSDLYQSRNKNSVA | NASTRYS | QQYHRLPLS | -0.07 0.13 0.06 -0.32 0.00 0.01 | 1/18 (4.26)
KSSQQVLYEDKMVNSVA | HASQRMS | QQYHRLPLS | 1.18 1.29 0.93 0.80 0.79 1.22 | 0/18
KQSQSELYESRNKNSVA | DASQRED | QDYHRLPLS | 0.78 0.41 0.29 0.33 0.94 1.12 | 0/18
KVSNSVMLESRNVNAVA | EASTRES | QDYHRLPLS | 0.25 0.14 0.13 -0.12 0.25 0.21 | 1/18 (4.68)
KMSMSVLYEDRNQNSVA | NASQRLD | QQYHRLPLS | 0.12 0.07 -0.19 -0.08 -0.12 0.11 | 0/18
KYSMQELQEQRNKNSVA | NASTREE | QQYHRLPLS | 0.82 1.84 1.15 2.72 1.29 1.96 | 0/18

Excerpt, the first 3 entries:

CDR-L1	CDR-L2	CDR-L3	log10 Kd (nM) by replicate	empty controls
KVSQMQPYESRNKNNVA	NASTRMS	QQYHRLPLS	0.01 -0.18 -0.27 -0.35 -0.12 0.00	6/18 (3.15)
KFSQSVLYESRNSNAVA	EASTRES	QDYHRLPLS	0.25 0.44 0.16 0.37 0.11 0.20	1/18 (3.89)
KLSMSDLYEMRNKNSVA	EASTREV	QQYHRLPLS	0.20 0.05 -0.03 0.01 -0.13 -0.03	0/18

The range of this assay differs from that of the first round, and the authors advise against merging the two.
Empty control strains, which show no peptide, gave a signal in 4% of pairings with all light chain designs; the median was 2.64 and 95% of these signals were weaker than 1.59. No background was subtracted. For each scFv, signals with the empty controls are counted beside the result, with their mean in brackets.
Of ten entries with the parent sequence, four were seen in most replicates (averages 0.34 to 2.37), three in one and three in none, so single entries are noisy.